From article PMC3960220, “1,2-β-Oligoglucan Phosphorylase from Listeria innocua” (PLoS ONE, 2014)

Tested on: O=P(O)(O)O
Test: purified protein
Conditions: phosphorolysis, co-substrate Sop3 varied, phosphate 0.5-5.0 mM, 100 mM MOPS-NaOH pH 7.5, 25 mM MgCl2, 30°C

## Lin1839r (recombinant Lin1839 protein; 1,2-β-oligoglucan phosphorylase) (Listeria innocua Clip11262; T2A)
  Km: 1300 ± 200 µM
  kcat: 21 ± 1 s⁻¹
